Patent US11952365B2, “Anti-viral compounds” (Aligos Therapeutics, Inc., priority 2020, dated 2024)

Protein sequences, listed by entry. Tags and fused reporters are not part of them. Residues count along the entry.
UniProt P03303, 1538-1719: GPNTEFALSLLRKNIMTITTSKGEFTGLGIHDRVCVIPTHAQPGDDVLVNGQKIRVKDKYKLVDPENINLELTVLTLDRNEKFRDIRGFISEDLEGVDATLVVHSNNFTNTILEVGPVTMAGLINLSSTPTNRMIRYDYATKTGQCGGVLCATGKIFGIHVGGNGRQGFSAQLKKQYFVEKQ

Target: HRV3C (Human rhinovirus 14, UniProt P03303)
Test: HRV3C protease assay (duplex, SAMDI-MS)
Assay type: biochemical
Conditions: HRV IC50, HRV3C, 30 mins preincubation, bound
Protocol: Protease assays were performed in 384-well low volume polypropylene microtiter plates at ambient temperature. For the duplex assay, 3CLpro and HRV3C was added using a Multidrop Combi (Thermo Scientific; Waltham, MA) and preincubated for 30 mins with small molecules. The reactions were initiated by the addition of the two peptide substrates. The reactions were incubated for 30 mins and quenched by the addition of 0.5% formic acid (final) with subsequent neutralization using 1% sodium bicarbonate (final). Internal standard peptides were added in 20 mM Hepes pH 8.0 for quantitation of the protease products. […] SAMDI-MS was performed using reflector-positive mode on an AB Sciex TOF-TOF 5800 System (AB Sciex, Framingham, MA) with 400 shots/spot analyzed in a random raster sampling. For data analysis, area under the curves (peaks) (AUCs) for the product and internal standard were calculated using the TOF/TOF Series Explorer (AB Sciex), and the amount of product formed was calculated using the equation (AUC product/AUC internal standard). The amount of product generated was calculated using the ratio of product area under the curve (AUC) divided by the AUC of the internal standard. […] Assay robustness was determined by Z-Factor. The IC50s were determined by fitting the curves using a four-parameter equation in Graphpad Prism 8.

## CS(=O)(=O)c1cccc2[nH]c(C(=O)N3C[C@@H]4CCC[C@@H]4[C@H]3C(=O)N[C@@H](C[C@@H]3CCNC3=O)C(=O)CO)cc12 [Compound 150, (1S,3aR,6aS)—N-[(2S)-4-hydroxy-3-oxo-1-[(3S)-2-oxopyrrolidin-3-yl]butan-2-yl]-2-(4-methanesulfonyl-1H-indole-2-carbonyl)-hexahydro-1H-cyclopenta[c]pyrrole-1-carboxamide]
  IC50: > 10 µM
